This note sets out measurements from BindingDB's records for 23148598.

Amino acid sequences for entries named in this document (tags omitted). Residues count along the entry.
UniProt P22303, 32-614 limits assumed: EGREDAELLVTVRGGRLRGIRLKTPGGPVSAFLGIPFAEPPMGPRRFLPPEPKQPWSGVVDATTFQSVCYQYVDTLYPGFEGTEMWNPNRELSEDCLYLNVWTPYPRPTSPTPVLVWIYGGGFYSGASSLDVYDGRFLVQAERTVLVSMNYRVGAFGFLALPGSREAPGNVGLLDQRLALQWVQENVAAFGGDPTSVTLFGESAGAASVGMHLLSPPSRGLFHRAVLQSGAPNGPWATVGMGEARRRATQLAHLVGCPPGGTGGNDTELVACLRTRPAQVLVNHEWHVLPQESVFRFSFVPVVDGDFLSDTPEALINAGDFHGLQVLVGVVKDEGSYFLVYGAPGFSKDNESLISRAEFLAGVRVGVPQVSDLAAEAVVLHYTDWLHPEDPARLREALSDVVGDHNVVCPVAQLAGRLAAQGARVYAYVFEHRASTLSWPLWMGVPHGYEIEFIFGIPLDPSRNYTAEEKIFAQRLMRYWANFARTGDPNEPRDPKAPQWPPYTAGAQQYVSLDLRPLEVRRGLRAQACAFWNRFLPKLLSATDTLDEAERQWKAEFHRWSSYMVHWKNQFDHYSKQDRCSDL

The test has as its target Acetylcholinesterase (Homo sapiens, UniProt P22303). The experiment in a line: ASSAY_NAME: ChEMBL_877957 (CHEMBL2188633) DESCRIPTION: Inhibition of human AChE.

In turn, `COc1cc2c(cc1OC)C(c1ccccc1)N(CCCCCc1cnc(CN=O)c(O)c1)CC2` (stereo unspecified) gave an IC50 of over 500 µM. Consider `COc1cc2c(cc1OC)C(c1ccccc1)N(CCCc1ccnc(CN=O)c1O)CC2` (stereo unspecified), for which the IC50 was over 200 µM.

The compound `COc1cc2c(cc1OC)C(c1ccccc1)N(CCCCCCc1ccc(O)c(CN=O)n1)CC2` (stereo unspecified) returned an IC50 of over 400 µM. In turn, `COc1cc2c(cc1OC)C(c1ccccc1)N(CCCCCc1ccnc(CN=O)c1O)CC2` (stereo unspecified) gave a half-maximal inhibitory concentration (IC50) of 320 µM. As to `COc1cc2c(cc1OC)C(c1ccccc1)N(CCCc1ccc(O)c(CN=O)n1)CC2` (stereo unspecified), half-maximal inhibition (IC50) required 260 µM. `COc1cc2c(cc1OC)C(c1ccccc1)N(CCCCCCc1cc(C)nc(CN=O)c1O)CC2` (stereo unspecified): half-maximal inhibition (IC50) required 300 µM.

By IC50 is commonly meant the concentration that gives 50% inhibition.
